A selection: hits, their analogues and other compounds. The true share with any hit is near 3.7%.
ClpP mod = qHTS Assay for Activators of ClpP; ATP-dependent Clp protease proteolytic subunit (Bacillus subtilis (strain 168)), P80244; purified B. subtilis ClpP, FRET peptide cleavage, 20 min; Potency, µM (titrated, usually from 57.5 µM); 1.9% of 340,000 active; AID 651965, 2013; active = well fitted falling curve with a large enough effect; inconclusive = small, poorly fitted or top-dose-only effect; inactive = no such curve, though single readings can be large or run the other way; note: the source files actives as falling curves though it sought activators and does not explain the sign; nearly all actives have a fitted effect of over 65% in size
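ClpP 10 microg/mL final, pH 8 Tris/KCl buffer with BSA, glycerol, Tween-20; compound pinned in; FRET-FV substrate; RT 20 min; Ex320/Em430; ΔFRET vs ADEP 5.8 microM, DMSO, no enzyme.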
miR-21 reporter = miR-21 reporter, rising signal | HeLa miR-21 FLuc reporter, luciferase, 48 h | Potency, µM (highest dose often 38.3 µM) | 340,000 tested, under 10 active | AID 2288; active = well fitted rising curve with a large enough effect; inconclusive = small, poorly fitted or top-dose-only effect; inactive = no such curve, though single readings can be large or run the other way;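 further: miR-21 action dims this reporter so a rising signal means less miR-21 action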
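HeLa cells stably expressing CMV-driven firefly luciferase with a downstream miR-21 binding sequence, endogenously expressing miR-21, were treated with titrations (up to about 40uM final) for 48 hours at 37 degree Celsius. Luciferase luminescence was read after lysis.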
Nrf2 block = Nrf2 pathway inhibition; 2.1% of 360,000 active; A549 ARE-Fluc reporter, luciferase luminescence, 18-24 h; AID 504444; Potency, µM (titrated, usually from 46 µM), actives largely listed as inhibitors; note: nearly all actives have a fitted effect of over 60% in size
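Two sequential reads on A549 ARE_Fluc cells exposed to compound for 18-24 h: a CellTiter-Fluor fluorescence read for viability, then a luciferase luminescence read for Nrf2/ARE activity.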
p53 reactivator = mutant p53 re-activation in reporter cells; H1299 p53-A138V BP100-luciferase reporter, luminescence, 24 h; 0.063% of 320,000 active; Potency, µM (highest dose often 92.2 µM), hits mostly activators; AID 504706; note: nearly all actives have a fitted effect of over 45% in size
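H1299 (p53-null), stable ts p53-A138V + BP100-Luc; 1000 cells/well, Opti-MEM/10% FBS; cpd 4 pt, 1:5; 24 h, 37 deg C, 5% CO2; detection reagent 10 min RT; luminescence.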
Nrf2 activator = activates Nrf2 signaling | Potency, µM (top dose mostly 46.1 µM), most hits filed as activators | AREc32 ARE-luciferase reporter (MCF7-derived line), luminescence, 24 h | AID 624171 | 0.31% of 410,000 active; note: nearly all actives have a fitted effect of over 65% in size
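Each well held 1000 AREc32 cells, which were incubated with compound for 24 hr at 37 deg C after overnight attachment, and ARE reporter activity was quantified by firefly luciferase luminescence.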
A549 viability = A549 cytotoxicity, counter-screen for Nrf2 inhibitors. A549 ARE-Fluc cells, CellTiter-Fluor viability, 18-24 h. Potency, µM (series often up to 46 µM), usual class: inhibitors. 0.16% of 390,000 active. AID 504648
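Cytotoxicity counterscreen: CellTiter-Fluor fluorescence was measured in A549 ARE_Fluc cells after 18-24 h of compound exposure in a concentration series. The subsequent BugLite luminescent read reports ARE-luciferase activity.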
A number is an active result; - = inactive; ? = inconclusive; . = not tested or not shown; ! = not active in a repeat; [ ] = dose if it differs, or a comment. Unless noted, calls come from the whole dose curve; as a rule, active = well fitted curve in the direction sought with a large enough effect; inconclusive = small, poorly fitted or top-dose-only effect, or another doubt; inactive = no such curve, though single readings can be large; an effect the other way counts as inactive or inconclusive.

Amino acid sequences for entries named in this document (tags omitted).
ATP-dependent Clp protease proteolytic subunit (Bacillus subtilis (strain 168)), P80244, UniProt P80244, whole entry, looked up: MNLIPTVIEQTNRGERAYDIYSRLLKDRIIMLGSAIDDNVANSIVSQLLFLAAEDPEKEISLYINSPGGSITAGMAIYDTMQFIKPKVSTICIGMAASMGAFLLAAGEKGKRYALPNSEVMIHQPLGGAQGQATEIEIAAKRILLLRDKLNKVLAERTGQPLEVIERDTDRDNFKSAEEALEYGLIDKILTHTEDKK

SMILES | ClpP mod | miR-21 reporter | Nrf2 block | p53 reactivator | Nrf2 activator | A549 viability
CCCN1CCc2cc(O)cc3c2[C@H]1Cc1ccc(O)c(O)c1-3 | ? | . | - | . | - | -
Cc1ccc(NC(=O)c2ncn(CC(=O)NCc3ccc4c(c3)OCO4)n2)cc1C | - | . | ? | ? | - | -
Cc1cccc(NC(=O)c2cc3c(=O)n4ccccc4nc3n2C)c1C | ? | - | - | . | - | -
COC1=CC(=O)[C@]2(C=C1OC)OC[C@@H]1Oc3c(ccc4c3C=CC(C)(C)O4)C(=O)[C@@H]12 | - | . | 0.65µM | - | - | -
COc1cc2[nH]c(=O)n(CCCCCC(=O)N3CCN(c4cccc(C(F)(F)F)c4)CC3)c(=O)c2cc1OC | - | ? | -[9.27 µM] | . | - | -
CN(C)[C@@H]1C(=O)C(C(N)=O)=C(O)[C@@]2(O)C(=O)C3=C(O)c4c(O)ccc(Cl)c4[C@@](C)(O)C3C[C@@H]12 (some centres not stated) | - | - | 23µM | - | - | ?
CN(C)C1C(=O)C(C(N)=O)=C(O)C2(O)C(=O)C3=C(O)c4c(O)cccc4C(C)(O)C3CC12 (configuration not stated) | - | - | - | - | - | -
Cc1ccc(Sc2ccc(N3CCCC(C(=O)Nc4ccc(Cl)cc4)C3)nn2)cc1 (configuration not stated) | ? | - | ? | . | - | -
O=[N+]([O-])c1ccc(C(c2ccc([N+](=O)[O-])cc2)c2ccc([N+](=O)[O-])cc2)cc1 | . | . | 23µM | . | - | -
COc1ccccc1C(=O)Nc1ccc2nc(SCC(=O)N(C)c3ccccc3)sc2c1 | - | ? | - | . | - | -
CN(C)S(=O)(=O)c1ccc(C(=O)NCCSc2c(-c3ccccc3)[nH]c3ccccc23)cc1 | - | ? | -[9.27 µM] | . | - | -
COC(=O)c1ccc(C(=O)OC)c(NC(=O)Oc2ccccc2)c1 | 2.8µM | - | - | ? | - | -
CCC(=O)c1ccc(OCC(=O)N2CCN(CC(=O)Nc3ccccc3C(F)(F)F)CC2)cc1 | . | . | 16µM | - | - | -
COc1nc2ccccc2nc1N1CC1 | - | . | . | . | - | .
c1ccc(C(c2ccccc2)N2CCN(c3ccc4ccccc4n3)CC2)cc1 | 18µM | - | . | - | - | -
Cc1ccccc1C(=O)Nc1ccc(C(=O)OCc2cc(=O)n3nc(C4CC4)sc3n2)cc1 | - | ? | . | . | - | -
CCCCCNc1c(C(=O)OCC)c(=O)[nH]c2ccccc12 | - | - | ? | - | - | -
CCC(C(=O)Nc1ccccc1C(=O)OC)n1nc(C)c2c(C)n(-c3ccc(C)cc3)nc2c1=O (configuration not stated) | - | - | 18µM | . | - | -
Cc1nn(-c2nccs2)c2c1C(=O)CC(C)(C)C2Br (configuration not stated) | - | . | ? | . | - | -
CC(C)c1ccc(NC(=O)Cn2c(=O)oc3cc(S(=O)(=O)N4CCCC4)ccc32)cc1 | - | ? | 21µM | . | - | -
COc1ccc(CNC(=O)Cn2c(=O)oc3cc(S(=O)(=O)N4CCCC4)ccc32)cc1 | - | - | ? | - | - | -
Nc1ccccc1C(=O)OCCOc1ccccc1 | 28µM | - | . | ? | - | -
COc1ccc(C(=O)Nc2ccc(-c3nc4ccccc4s3)c(Cl)c2)cc1Cl | - | - | - | . | - | -
CCCNc1oc(-c2cccc3ccccc23)nc1C#N | 28µM | - | - | ? | - | -
COP(=O)(OC)c1nc(-c2cccc3ccccc23)oc1NCCc1ccccc1 | - | - | ? | - | - | -
SMILES | ClpP mod | miR-21 reporter | Nrf2 block | p53 reactivator | Nrf2 activator | A549 viability
Cc1cccc(-n2c(/C=C/c3ccccc3O)nc3ccccc3c2=O)c1 | - | ? | - | . | - | -
Cc1cccc(N2CCc3c2nc2ccccc2c3N)c1 | 25µM! | - | - | - | - | -
Cc1cc(C)cc(NC(=O)Cn2cc(C(=O)c3cccs3)c3ccccc32)c1 | - | - | 16µM | . | - | -
CCn1cc(C(=O)c2cccs2)c2ccccc21 | - | - | - | - | - | -
CC1=C(O)C(=O)C=C2C1=CC=C1C2(C)CCC2(C)C3CC(C)(C(=O)O)CCC3(C)CCC12C (configuration not stated) | - | . | 18µM | . | - | ?
O=C(NNc1c(F)c(F)cc(F)c1F)c1cc2ccccc2oc1=O | . | - | - | - | - | -
COC(=O)[C@@]12CCCCN1[C@H](c1ccc(-c3ccc(Cl)c(Cl)c3)c(OC)c1)[C@@H]1C(=O)N(C)C(=O)[C@@H]12 | - | . | 21µM | . | - | -
Cc1cc(=O)n(-c2ccccc2)n1C | - | . | ? | - | - | -
Cn1c2ccccc2c2c(C(=O)N3CCC4(CC3)OCCO4)cn(C3CCCC3)c(=O)c21 | ? | - | - | - | - | -
COCCn1cc(C(=O)N2CCC3(CC2)OCCO3)c2c3ccccc3n(C)c2c1=O | 20µM | - | - | - | - | -[1.84 µM]
COc1cc(CN2CCc3nc(N4CCN(c5ccccn5)CC4)ncc3C2)cc(OC)c1OC | - | ? | . | . | - | -
CC1(C)Cc2c(sc3c2C(=O)NC(c2cccnc2)N3)CO1 (configuration not stated) | 32µM | - | - | - | - | -
O=C1NC(c2cccnc2)Nc2sc3c(c21)CCCC3 (configuration not stated) | - | - | - | ? | - | -
COc1cccc(C2(O)CCSCC2CN(C)C)c1 (configuration not stated) | 3.5µM | - | - | - | - | -
CNC(=O)c1cccn(Cc2ccc(C(F)(F)F)cc2)c1=O | . | - | ? | - | ? | -
NC(=O)c1cccn(Cc2ccc(C(F)(F)F)cc2)c1=O | . | - | 16µM | - | - | -
CNC(=O)c1cccn(Cc2cc(C(F)(F)F)cc(C(F)(F)F)c2)c1=O | . | - | 5.2µM | - | - | -
COc1ccccc1C1Nc2ccccc2-n2c(-c3ccccc3)c3c(=O)n(C)c(=O)n(C)c3c21 (configuration not stated) | - | - | ? | . | - | -
COC(=O)C1=C(C(=O)OC)C2OC1c1cc3ccccc3cc12 | - | . | 21µM | . | - | -
COC(=O)C1=C(c2ccc3ccccc3c2)C[C@@H]2CC[C@H]1N2C | - | . | - | - | - | -
Cc1ccc(C)c(N2CCN(C(=O)CCS(=O)(=O)c3ccc4c(c3)oc(=O)n4C)CC2)c1 | - | - | 21µM! | - | - | -
Cc1cn2c(=O)cc(COC(=O)c3ccccc3F)nc2s1 | - | - | ? | . | - | -
Nc1c(C(=O)Nc2cccc(F)c2)sc2nc(-c3cccs3)ccc12 | - | - | - | . | - | -
